Consider 1 compound from ChEMBL document CHEMBL1150976, “The selectivity of protein kinase inhibitors: a further update” (Biochem J, 2007).

Sequences of proteins named here, by UniProt entry; tags and fusion partners are left off.
UniProt P15056, whole entry: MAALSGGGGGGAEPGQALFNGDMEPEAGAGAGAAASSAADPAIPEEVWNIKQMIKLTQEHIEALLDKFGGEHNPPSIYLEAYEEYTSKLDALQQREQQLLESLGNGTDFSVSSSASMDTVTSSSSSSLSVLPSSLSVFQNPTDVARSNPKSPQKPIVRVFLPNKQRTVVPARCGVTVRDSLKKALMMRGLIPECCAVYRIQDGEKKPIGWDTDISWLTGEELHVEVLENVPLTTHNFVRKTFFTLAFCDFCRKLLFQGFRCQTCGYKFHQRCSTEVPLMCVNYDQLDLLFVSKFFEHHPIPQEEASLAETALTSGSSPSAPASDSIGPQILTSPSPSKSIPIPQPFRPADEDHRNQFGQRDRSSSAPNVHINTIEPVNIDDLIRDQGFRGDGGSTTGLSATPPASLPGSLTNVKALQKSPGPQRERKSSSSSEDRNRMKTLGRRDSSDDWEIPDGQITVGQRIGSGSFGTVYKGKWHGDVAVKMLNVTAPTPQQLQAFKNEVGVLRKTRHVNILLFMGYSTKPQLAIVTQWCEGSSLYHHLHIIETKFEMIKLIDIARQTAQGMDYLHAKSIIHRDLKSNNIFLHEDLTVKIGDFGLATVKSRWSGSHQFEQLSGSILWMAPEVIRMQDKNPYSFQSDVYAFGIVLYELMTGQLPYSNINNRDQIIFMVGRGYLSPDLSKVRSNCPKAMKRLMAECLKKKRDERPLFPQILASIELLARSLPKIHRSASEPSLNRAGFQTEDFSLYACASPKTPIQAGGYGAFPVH

The target in the assay is Serine/threonine-protein kinase B-raf (Homo sapiens, UniProt P15056). The assay is described as follows: Percentage B-Raf activity remaining in the presence of 1uM inhibitor. The note with it: filed as antagonist.

Consider `O=C1Nc2ccc(I)cc2C1=Cc1cc(Br)c(O)c(Br)c1` [GW305074X], for which the Activity was 16%.
